Assay outcomes: PubChem, Broad Institute
LGR2 inh: inhibitors of bursicon-induced LGR2 CRE-luciferase signal, primary screen, cell-based, HEK293, CRE-luciferase reporter, bursicon stimulation. bursicon-stimulated, 4 h. inhibition, % at 9.99 µM. 380,000 compounds, 0.35% hits;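 active = drop in luminescence signal, shown as inhibition above about 50% in the replicate tests, limit read from the data, passing the limit was not always enough; inconclusive = probably only some replicates passing the limit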;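 also: agonist challenge used bursicon conditioned medium at about half maximal strength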
Yeast UUG start: modulators of start codon recognition fidelity in yeast. activity score, % at 18.7 µM. S. cerevisiae UUG-firefly luciferase reporter, luminescence/redox ratio. 350,000 compounds, 0.13% hits;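 active means replicate mean at a twofold rise or more, about +100% in these data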;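 further: firefly luciferase made from a UUG start codon reports start codon fidelity; reporter light over untreated wells divided by growth signal over untreated wells; some hits fall short of that in this replicate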
CFTR F508del cor: F508del CFTR correction, initial screen, CFBE line, single point. AID 720511, 2013. activity (quench increase), % at 7.58 µM. CFBE cells, YFP halide quenching; stimulated with forskolin plus potentiator P3; % fluorescence drop versus neutral controls. 350,000 compounds, 0.36% hits;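 active = mean added fluorescence quench of at least 8% versus neutral control, with both replicates also reaching 8%; inconclusive = only one of the mean or replicate conditions met; inactive = mean below 8% and not both replicates reaching 8%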;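 also: cells transiently co-express mutant CFTR-F508del with the halide-sensitive YFP; corrector assay measuring rescue of mutant channel to the surface after 24 h compound exposure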
miR-122 sensor: miR-122 Renilla sensor signal increase in Huh7, primary screen, miR-122 inhibitor project, cell-based, single point, plate reader. 340,000 compounds, 0.3% hits. AID 602342, 2012. activation (reporter increase), % at 12.5 µM. Huh7 miR-122 Renilla luciferase sensor, 48 h; neutral wells = 0, positive control = 100;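 active = mean replicate activation score at least 90 and every replicate individually at or above 90; inconclusive = only one of the two criteria met; inactive = neither criterion met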;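 also: higher luciferase means less miR-122 activity so hits act as miR-122 inhibitors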
PglD DTNB: C. jejuni PglD acetyltransferase inhibitors, primary screen, biochemical, DTNB colorimetric, single point | UDP-N-acetylbacillosamine N-acetyltransferase PglD (Campylobacter jejuni) | purified PglD enzyme, DTNB colorimetric CoA detection | inhibition, % at 12.5 µM | 360,000 compounds, 0.098% hits | AID 602405, 2012; in the data active = inhibition above about 16%, passing the limit was not always enough; inconclusive = no clear call, values can overlap the other calls
EWS-Fli inh: EWS/Fli-driven NR0B1 reporter inhibitors, primary screen, A673 cells, NR0B1 luciferase, luminescence, MLPCN library; viability-normalised; inhibition, % at 12.6 µM; 350,000 compounds, 0.67% hits;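 active = mean inhibition of at least 50% after viability correction, with every replicate also passing that limit; inconclusive = mean reaches 50% but only one of two replicates passes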;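 also: firefly luciferase signal divided by Alamar Blue viability fluorescence both relative to DMSO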
A number is an active result. The list is not random: actives were taken first. Their share in the collection is about 1.3%.

Results for COc1ccc(S(=O)(=O)N2CCCCN3[C@@H](CO)[C@H](c4ccc(-c5cccnc5)cc4)[C@@H]3C2)cc1 ?
LGR2 inh: inactive; Yeast UUG start: inactive; CFTR F508del cor: inactive; miR-122 sensor: inactive; PglD DTNB: inactive

What do the screens show for `Cc1ccccc1-c1ccc([C@@H]2[C@H](CO)N3CCCCN(S(=O)(=O)Cc4ccccc4)C[C@@H]23)cc1`?
LGR2 inh: inactive; Yeast UUG start: inactive; CFTR F508del cor: inactive; miR-122 sensor: inactive; PglD DTNB: inactive; EWS-Fli inh: 57

How did COc1ccc(S(=O)(=O)N2CCCCN3[C@H](CO)[C@H](c4ccc(-c5cccnc5)cc4)[C@@H]3C2)cc1 do in these assays?
LGR2 inh: 58; Yeast UUG start: inactive; CFTR F508del cor: inactive; miR-122 sensor: inactive; PglD DTNB: inactive

Results for C/C=C/c1ccc([C@@H]2[C@H](CO)N3CCCCN(S(=O)(=O)c4ccccc4)C[C@@H]23)cc1 ?
LGR2 inh: inactive; Yeast UUG start: inactive; CFTR F508del cor: 31; miR-122 sensor: inactive; PglD DTNB: inactive; EWS-Fli inh: inactive

Results for CNC[C@@H]1OCCCC[C@H](C)Oc2ccc(NS(=O)(=O)c3ccccc3)cc2C(=O)N([C@@H](C)CO)C[C@@H]1C ?
LGR2 inh: inactive; Yeast UUG start: inactive; CFTR F508del cor: inactive; miR-122 sensor: inactive; PglD DTNB: inactive; EWS-Fli inh: inactive

What do the screens show for `CON(C)c1nc(OCCNC(=O)OCc2ccc(Cl)cc2C)nc(N(C)C)n1`?
Yeast UUG start: inactive; miR-122 sensor: inactive; PglD DTNB: inactive

What do the screens show for `Nc1c(C(=O)N2CCOCC2)sc2nc3c(cc12)CCCC3`?
LGR2 inh: 71; Yeast UUG start: inactive; CFTR F508del cor: inactive; miR-122 sensor: inactive; PglD DTNB: inactive; EWS-Fli inh: inactive

What do the screens show for `COc1cccc(-n2nnnc2SCC(=O)NCc2ccc3c(c2)OCO3)c1`?
LGR2 inh: inactive; Yeast UUG start: inactive; CFTR F508del cor: inactive; miR-122 sensor: inactive; PglD DTNB: inactive; EWS-Fli inh: inactive

Results for COc1cccc(NC(=O)c2cnc(SCC(=O)NCc3ccc4c(c3)OCO4)n(C)c2=O)c1 ?
LGR2 inh: inactive; CFTR F508del cor: 8.1; EWS-Fli inh: inactive

How did CCOc1ccc(N(CC)C(=O)COc2cc(=O)n(C)c3ccccc23)cc1 do in these assays?
LGR2 inh: inactive; Yeast UUG start: inactive; CFTR F508del cor: 8.8; miR-122 sensor: inactive; PglD DTNB: inactive; EWS-Fli inh: inactive

How did CCOc1ccc(N(CC)C(=O)COc2cc(=O)n(CC)c3ccccc23)cc1 do in these assays?
Yeast UUG start: inactive; miR-122 sensor: inactive; PglD DTNB: inactive

How did COc1ccc(-c2cnc3c(NC(C)=O)cc(-c4cccc(C(=O)NCCO)c4)cn23)cc1OC do in these assays?
LGR2 inh: inactive; Yeast UUG start: inactive; CFTR F508del cor: inactive; PglD DTNB: inactive; EWS-Fli inh: inactive

What do the screens show for `CC(=O)Nc1ccc2cc3ccc(NC(C)=O)cc3nc2c1`?
LGR2 inh: inactive; Yeast UUG start: inactive; CFTR F508del cor: 10.0; miR-122 sensor: inactive; PglD DTNB: inactive; EWS-Fli inh: inactive

What do the screens show for `CC(=O)Nc1ccc2ccccc2c1`?
Yeast UUG start: inactive; miR-122 sensor: inactive; PglD DTNB: inactive

What do the screens show for `CCCOc1ccc(F)cc1-c1cc(C(=O)NCc2ccc(C(F)(F)F)cc2)[nH]n1`?
Yeast UUG start: inactive; miR-122 sensor: inactive; PglD DTNB: inactive

How did O=[N+]([O-])c1ccc(Sc2nc3ccccc3o2)c([N+](=O)[O-])c1 do in these assays?
LGR2 inh: 97; Yeast UUG start: inactive; CFTR F508del cor: inactive; miR-122 sensor: inactive; PglD DTNB: inactive; EWS-Fli inh: 63

Results for O=[N+]([O-])c1ccc(Cl)cc1Sc1nc2ccccc2o1 ?
LGR2 inh: inactive; Yeast UUG start: inactive; CFTR F508del cor: inactive; miR-122 sensor: inactive; PglD DTNB: inactive; EWS-Fli inh: inactive

Results for COc1ccc(-n2ccnc2SCC(=O)NCc2ccccc2)c(OC)c1 ?
LGR2 inh: inactive; Yeast UUG start: inactive; CFTR F508del cor: inactive; miR-122 sensor: inactive; PglD DTNB: inactive; EWS-Fli inh: inactive

Results for COC(=O)C(NC(=O)CCc1c(C)nc2c(c(C)nn2-c2ccccc2)c1C)C(C)C (configuration not stated) ?
LGR2 inh: inactive; Yeast UUG start: inactive; CFTR F508del cor: inactive; miR-122 sensor: inactive; PglD DTNB: inactive; EWS-Fli inh: inactive

Results for CC(C)=CCC/C(C)=C/CNC(=O)C[C@H]1C[C@H](C(=O)N2CCOCC2)[C@@]2(C)c3[nH]c4ccc(Cl)cc4c3CCN2C1=O ?
LGR2 inh: 63; Yeast UUG start: inactive; CFTR F508del cor: inactive; miR-122 sensor: inactive; PglD DTNB: inactive; EWS-Fli inh: inactive

What do the screens show for `CC(C)=CCC/C(C)=C/CNC(=O)CC1C[C@H](C(=O)N2CCOCC2)[C@@]2(C)c3[nH]c4ccccc4c3CCN2C1=O` (some centres not stated)?
LGR2 inh: inactive; Yeast UUG start: inactive; CFTR F508del cor: inactive; miR-122 sensor: inactive; PglD DTNB: inactive; EWS-Fli inh: inactive

What do the screens show for `CCOc1ccc(N2CC(O)(c3cccs3)[N+]3=C2CCCC3)cc1` (configuration not stated)?
LGR2 inh: inactive; Yeast UUG start: inactive; CFTR F508del cor: inactive; miR-122 sensor: inactive; PglD DTNB: inactive; EWS-Fli inh: inactive

What do the screens show for `CN(C)c1ccc(/C=N/Nc2cccc(C(=O)O)c2)cc1`?
LGR2 inh: 87; Yeast UUG start: inactive; CFTR F508del cor: inactive; miR-122 sensor: inactive; PglD DTNB: inactive; EWS-Fli inh: inactive

What do the screens show for `CC(C)(C)c1ccc(/C=N/Nc2cccc(C(=O)O)c2)cc1`?
LGR2 inh: inactive; CFTR F508del cor: inactive; EWS-Fli inh: inactive

Results for O=C(O)c1ccc(N/N=C/c2ccc(C(F)(F)F)cc2)cc1 ?
LGR2 inh: 93; Yeast UUG start: inactive; CFTR F508del cor: inactive; miR-122 sensor: inactive; PglD DTNB: inactive; EWS-Fli inh: inconclusive

What do the screens show for `C#CCN(C[C@@H]1[C@@H](OC(=O)NCC2CCCCC2)[C@@H](OC(=O)NCC2CCCCC2)Cn2c(=O)ccc(=O)n21)S(=O)(=O)c1ccc(C)cc1`?
LGR2 inh: 72; Yeast UUG start: inactive; CFTR F508del cor: inactive; miR-122 sensor: inactive; PglD DTNB: inactive; EWS-Fli inh: inactive

How did C#CCN(C[C@@H]1[C@@H](OC(=O)NCc2ccc(OC)c(OC)c2)[C@@H](OC(=O)NCc2ccc(OC)c(OC)c2)Cn2c(=O)ccc(=O)n21)S(=O)(=O)c1ccc(C)cc1 do in these assays?
LGR2 inh: inactive; Yeast UUG start: inactive; CFTR F508del cor: inactive; miR-122 sensor: inactive; PglD DTNB: inactive; EWS-Fli inh: inactive
